# Data from paper PMC9667534, “Insertion of Nanoluc into the Extracellular Loops as a Complementary Method To Establish BRET-Based Binding Assays for GPCRs” (ACS Pharmacology & Translational Science, 2022).
# Biological target: Nluc-AT1R(S186) (Homo sapiens, UniProt P30556)
# Experiment: BRET competition binding with fluorescent ligand 3
# Settings: kinetic BRET competition binding with 3 at Nluc-AT1R(S186)
compound,measurement,value
CCCCc1nc(Cl)c(CO)n1Cc1ccc(-c2ccccc2-c2nn[nH]n2)cc1 [losartan],time until pIC50 value stabilized,≤ 45 min
